For the experiment, the target named is T1, human lysosomal N-acetyl-β-hexosaminidase A (Homo sapiens, UniProt P06865).
T1 construct: endogenous in cells; host or cells: human skin fibroblasts (wild type), cell homogenate
Description: Human N-acetyl-β-hexosaminidase A activity in fibroblast homogenate (4-MU N-acetyl-β-glucosaminide-6-sulfate substrate). It is filed as biochemical. The settings on record: normal human skin fibroblast homogenate, pH 4.4, 37 °C, 60 min; read-out: IC50 with human lysosomal N-acetyl-β-D-hexosaminidase A. How it is done: Human skin fibroblasts (wild type) were grown in minimal essential medium (MEM) with Earle’s Salts (Sigma Aldrich, St. Louis, MO, USA) containing 10% fetal bovine serum, 400 µM L-glutamine, and 50 µg/mL gentamycin at 37 °C and 5% CO2. All cells used in this study were between the third and nineteenth passages.
All inhibitors were dissolved in DMSO in a concentration of 10 mM and diluted in 10 mM phosphate buffer (pH 7.0) containing 100 mM NaCl, 0.01% NaN3, and 0.01% Triton for the IC50-measurements.
Human N-acetyl-β-hexosaminidase A activity measurements were performed in duplicate assays unless otherwise stated. Fibroblast cells of three single 80 cm^2 flasks were harvested by trypsinization in 500 µL (each of them) 0.9% NaCl containing 0.01% Triton, homogenized by sonication (4 times 15 s, Bandelin (Berlin, Germany) Sonopuls ultrasound homogenator mini 20) and centrifuged at 13.000 rpm for 1 min in a table top centrifuge (Biofuge Pico, Heraeus, Hanau, Germany). Protein amounts were determined according to the method of Lowry. […] The amount of hydrolyzed 4-methylumbelliferone was determined with a fluorescence spectrometer (F7000 Hitachi, Chiyoda, Japan). […]
Activity was measured in normal fibroblasts. […]

Chains of the proteins cited; added tags and fusions are not shown. Residues count along the entry.
UniProt P06865, 89-529: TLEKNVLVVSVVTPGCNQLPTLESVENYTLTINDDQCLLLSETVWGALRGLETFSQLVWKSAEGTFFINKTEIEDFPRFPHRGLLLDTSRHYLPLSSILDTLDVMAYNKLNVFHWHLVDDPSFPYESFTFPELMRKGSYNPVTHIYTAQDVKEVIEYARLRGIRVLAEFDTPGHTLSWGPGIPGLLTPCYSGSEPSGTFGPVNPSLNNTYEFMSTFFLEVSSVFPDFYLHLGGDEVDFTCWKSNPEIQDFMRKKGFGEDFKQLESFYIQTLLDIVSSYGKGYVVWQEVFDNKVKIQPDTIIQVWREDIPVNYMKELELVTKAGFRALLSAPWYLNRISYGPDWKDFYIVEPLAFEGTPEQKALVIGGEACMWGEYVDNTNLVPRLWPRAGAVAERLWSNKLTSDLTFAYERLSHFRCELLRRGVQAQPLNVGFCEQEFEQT

SMILES strings stand for the structures.

For orientation: IC50 means the concentration that inhibits the measured activity by half. For `CCc1nc(N)nc(N)c1-c1ccc(Cl)cc1` [pyrimethamine, reference compound], the IC50 was 62 µM.

The values are drawn from paper PMC6017319, “Potent GH20 N-Acetyl-β-D-hexosaminidase Inhibitors: N-Substituted 3-acetamido-4-amino-5-hydroxymethyl-cyclopentanediols” (Molecules : A Journal of Synthetic Chemistry and Natural …, 2018).
